Literature values, collected in publication PMC8876114, “Cytotoxicity and anti-HIV activities of extracts of the twigs of Croton dichogamus Pax” (BMC Complementary Medicine and Therapies, 2022).

Columns and labels:
Conditions in all cases: cited from earlier work
[1] = tested on: BT-474
[2] = tested on: KATO-3
[3] = tested on: SW-620
[4] = tested on: CHAGO
[5] = tested on: HEP-G2

14-ent-clerodadien-3-one [trans-cascarillone]
CC50 [1]: 3260 µg/mL | CC50 [2]: 6780 µg/mL | CC50 [3]: 4440 µg/mL | CC50 [4]: 6670 µg/mL | CC50 [5]: 6370 µg/mL
